# In publication PMC9243172 (Heliyon, 2022):
# Protein sequences, listed by entry. Tags and fused reporters are not part of them.
# UniProt P05177, whole entry: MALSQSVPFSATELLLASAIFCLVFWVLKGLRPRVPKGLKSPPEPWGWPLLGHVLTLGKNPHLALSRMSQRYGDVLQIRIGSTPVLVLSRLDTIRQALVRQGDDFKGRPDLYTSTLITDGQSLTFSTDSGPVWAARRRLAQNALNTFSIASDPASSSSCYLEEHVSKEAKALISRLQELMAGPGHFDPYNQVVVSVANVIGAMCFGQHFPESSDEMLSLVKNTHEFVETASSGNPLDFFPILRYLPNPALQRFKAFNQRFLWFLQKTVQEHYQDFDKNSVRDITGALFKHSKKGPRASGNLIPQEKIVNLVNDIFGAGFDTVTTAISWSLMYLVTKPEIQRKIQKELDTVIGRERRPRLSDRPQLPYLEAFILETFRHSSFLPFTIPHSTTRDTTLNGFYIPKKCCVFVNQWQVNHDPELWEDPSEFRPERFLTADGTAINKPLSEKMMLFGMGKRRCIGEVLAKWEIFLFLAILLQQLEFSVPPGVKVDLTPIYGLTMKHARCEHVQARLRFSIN
# Biological target: CYP1A2 (Homo sapiens, UniProt P05177)
# Details: HLMs; pre-incubation 0–20 min
compound,measurement,value
"O=c1cc(-c2ccccc2)oc2c1ccc1ccccc12 [α-Naphthoflavone, α-naphthoflavone]",Time dependency of CYP1A2 inhibition,time-dependent manner
